The list is not random: actives were taken first. Their share in the collection is about 0.43%.
GIV Gai3 FP = GIV-Galpha-i interaction inhibition. P08753. Galpha-i3/FITC-GIV peptide fluorescence polarization, 90 min; active compounds read low; scaled: aluminum fluoride 0%, vehicle 100%. percent of control (FP), % (test concentration not listed). 210,000 compounds, 0.42% hits. AID 1224905;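 active = replicate mean at 85% of control or lower, very high polarization wells dropped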;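 also: lower values mean more displacement of the GIV peptide from Galpha-i3; wells of about 15 µL received 100 nL stock; the first replicate is given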
HCMV UL50-53 inh = disrupts HCMV UL50-UL53 complex binding; HTRF UL50-UL53 interaction, normalized percent inhibition; inhibition, % (no concentration beside the values); 0.15% of 190,000 active; in the data active = inhibition above about 27%, passing the limit was not always enough
Large screens that a line does not name were inactive.

CC(=O)n1c(O)c(/C=C2\C=c3ccc(C)cc3=NC2=O)sc1=N	none (no result: HCMV UL50-53 inh)
CC(=O)n1c(/C=C2\C=c3ccccc3=NC2=O)c(O)[nH]c1=S	GIV Gai3 FP 49.2
CCc1nnc2c3cnn(-c4ccccc4)c3nc(C)n12	none (no result: GIV Gai3 FP)
CC(=Nc1cccc(Br)c1)c1sc2ccccc2c1O	GIV Gai3 FP 56.4
CC(=Nc1cccc(O)c1)c1sc2ccccc2c1O	none
COc1ccccc1-c1c(C)nn2c(NCCN3CCCCC3C)cc(C)nc12 (configuration not stated)	none (no result: HCMV UL50-53 inh)
CN(C)c1ccc(/C=C/C(=C(C#N)C#N)C2CC2)cc1	GIV Gai3 FP -45.0
N#CC(C#N)=C(/C=C/c1ccccc1)C1CC1	none (no result: GIV Gai3 FP)
COc1cc(C=C2C(=O)NC(=O)NC2=O)cc(Br)c1OCCOc1ccccc1	HCMV UL50-53 inh 82.2
COc1cc(C=C2C(=O)NC(=S)NC2=O)cc(Cl)c1OCCOc1cccc(C)c1	none
COc1cc(C=C2C(=O)NC(=O)NC2=O)cc(Cl)c1OS(=O)(=O)c1ccccc1	HCMV UL50-53 inh 60.3
CCOc1cc(C=C2C(=O)NC(=O)NC2=O)cc(Br)c1OCCOc1ccccc1	none
COc1cc(C=C2C(=O)N(C)C(=O)N(C)C2=O)cc(Br)c1OCCOc1ccccc1	none
COc1ccccc1OCCOc1c(Br)cc(C=C2C(=O)N(C)C(=O)N(C)C2=O)cc1OC	HCMV UL50-53 inh 77.3
CC(C)c1cc(C2CCCN2Cc2cc(Br)ccc2O)no1 (configuration not stated)	none (no result: HCMV UL50-53 inh)
CCSc1nc2ncn(CC(=O)Nc3ccc(Cl)cc3)c(=O)c2s1	none
CC1=C/C(=N\Nc2ncc(Cl)cc2Cl)CC(C)(C)C1	none (no result: GIV Gai3 FP)
O=C(O)C(C(=O)O)c1ccccc1	none (no result: GIV Gai3 FP)
CCCc1[nH]n(-c2ccccc2)c(=O)c1C(C)=NCCOC	none
CC(=O)NCCCc1[nH]n(-c2ccccc2)c(=O)c1NC(=O)c1ccccc1	HCMV UL50-53 inh 65.0 (no result: GIV Gai3 FP)
O=C(Nc1ccccc1)C1C2C=CC(C2)C1C(=O)Nc1ccccc1 (configuration not stated)	none (no result: GIV Gai3 FP)
CN1/C(=C\C=C(C#N)C#N)C(C)(C)c2ccccc21	none (no result: GIV Gai3 FP)
CC[n+]1c(/C=C/C=C2/N(C)c3ccccc3C2(C)C)sc2ccccc21	GIV Gai3 FP -20.0
CC(C)CCn1c(=O)c2ccccc2n2c(CSc3n[nH]c(N)n3)nnc12	none (no result: GIV Gai3 FP)
Cc1sc(NC(=O)c2cc3cc(Br)ccc3oc2=O)nc1-c1ccccc1	none
COc1ccc(C2=CC(c3cccc(OC)c3)n3ncc(C(=O)Nc4ccc(C)cc4)c3N2)cc1 (configuration not stated)	none
COc1ccc(C2C=C(c3ccc(C)cc3)Nc3c(C(=O)Nc4ccccc4)cnn32)cc1 (configuration not stated)	GIV Gai3 FP -66.7 (no result: HCMV UL50-53 inh)
CCc1nc(NCC(C)C)c(C#N)c2c1CCCC2	none (no result: HCMV UL50-53 inh)
Cc1onc(-c2ccc(F)cc2)c1C(=O)NCc1ccc2c(c1)OCO2	none (no result: HCMV UL50-53 inh)
Cc1cc(C)n(-c2nc3cc(Cl)ccc3nc2Nc2ccc3c(c2)n(C)c(=O)n3C)n1	GIV Gai3 FP 3.9
Cc1cc(C)n(-c2nc3cc(Cl)ccc3nc2Nc2ccc(C)c(F)c2)n1	none
C=CCn1c(=O)[nH]c2nc3cc(N=CN(C)C)ccc3nc2c1=O	none
C=CCn1c(=O)[nH]c2nc3cc(N=CN(C)C)c(C)cc3nc2c1=O	GIV Gai3 FP -15.9 (no result: HCMV UL50-53 inh)
CN(C(=O)COC(=O)c1cccc2ccccc12)C1CCS(=O)(=O)C1 (configuration not stated)	none (no result: GIV Gai3 FP)
O=C(O)C1=COCCO1	none (no result: GIV Gai3 FP)
CC(C)N1CCc2c(sc(NC(=O)C3CC3)c2-c2nc3ccccc3s2)C1	GIV Gai3 FP -3.2 (no result: HCMV UL50-53 inh)
CC(=O)N1CCc2c(sc(NC(=O)CSc3ccc(C)cc3)c2-c2nc3ccccc3s2)C1	none (no result: HCMV UL50-53 inh)
CN1CCc2c(sc(NC(=O)CN3C(=O)c4ccccc4C3=O)c2-c2nc3ccccc3s2)C1	none (no result: HCMV UL50-53 inh)
CN1CCc2c(sc(NC(=O)C3CC3)c2-c2nc3ccccc3s2)C1	GIV Gai3 FP -3.2 (no result: HCMV UL50-53 inh)
CCNCc1ccncc1	none (no result: GIV Gai3 FP)
CCCc1cc2c(=O)c(-c3nc(C)cs3)coc2cc1OC(C)=O	none (no result: GIV Gai3 FP)
CC(C)NC(=O)N1CCNC(=O)C1(C)C	none (no result: HCMV UL50-53 inh)
O=C(O)COc1ccc2c(c1)C(=O)c1cc(OCC(=O)O)ccc1-2	GIV Gai3 FP 84.0
O=C(O)COc1ccc2c(c1)C(=NO)c1cc(OCC(=O)O)ccc1-2	none (no result: HCMV UL50-53 inh)
CC1CC1C(=O)NC1CCCCC1C(C)(C)C (configuration not stated)	none
O=c1oc2cc(S(=O)(=O)NC3CC3)ccc2n1Cc1noc(C2CCC2)n1	none
O=C(CCC(=O)N1CCc2cc(S(=O)(=O)N3CCc4ccccc43)ccc21)N1CCOCC1	none
Cc1ccc2[nH]c3c(c2c1)CCC1C3=NNC1c1ccco1 (configuration not stated)	GIV Gai3 FP -65.7 (no result: HCMV UL50-53 inh)
Cc1ccc2[nH]c3c(c2c1)CCc1cn[nH]c1-3	none
O=c1[nH]c2cc(Br)cnc2[nH]1	HCMV UL50-53 inh 76.9
O=c1[nH]c2ccccc2[nH]1	none (no result: GIV Gai3 FP)
CN(C)/C=C/C=C1/CCc2ccccc2C1=O	GIV Gai3 FP -3.8
CCN(CC)c1ccc(/C=C2\CCc3ccccc3C2=O)cc1	none (no result: HCMV UL50-53 inh)
CC(C)c1nc(=S)c2cc(Br)cc(Br)c2[nH]1	none (no result: GIV Gai3 FP)
CCN(CC)c1ccc(N2C(=O)/C(=C/c3ccccc3)SC2=S)cc1	none (no result: GIV Gai3 FP)
CCN(CC)c1ccc(/C=C2\SC(=S)N(c3c(C)n(C)n(-c4ccccc4)c3=O)C2=O)cc1	GIV Gai3 FP 26.5 (no result: HCMV UL50-53 inh)
CCn1cc2c(c1-c1ccc(Cl)cc1)c(=O)n(C)c(=O)n2C	none
CN1C(=O)N(C)C2(c3ccccc3)NC(=S)NNC12c1ccccc1 (configuration not stated)	none (no result: HCMV UL50-53 inh)
Cc1ccc2cc3c(NCc4ccc(F)cc4Cl)n[nH]c3nc2c1	none (no result: HCMV UL50-53 inh)
CCN(CC)c1ccc(/C=c2\sc3nc(-c4ccco4)nn3c2=O)cc1	GIV Gai3 FP -83.2
CN(C)c1ccc(/C=c2/sc3nc(-c4ccc(Cl)cc4)nn3c2=O)cc1	none (no result: HCMV UL50-53 inh)
CCN1CCc2c(sc(-n3cccc3)c2C(C)NC(=O)Nc2ccc(Br)c(C)c2)C1 (configuration not stated)	none
COc1ccc(CN(C)C(=O)CSc2nnc3sc4ccccc4n23)cc1	none (no result: GIV Gai3 FP)
COc1ccc(-c2c(C#N)c(N)nc(SCC(=O)OCc3ccccc3)c2C#N)cc1	none
N#Cc1c(N)nc(SCC(=O)Nc2ccc([N+](=O)[O-])cc2)c(C#N)c1-c1ccco1	none
N#Cc1c(N)nc(SCC(=O)c2ccc(Br)cc2)c(C#N)c1-c1ccccc1	none
N#Cc1c(N)nc(SCC(=O)Nc2ccccc2)c(C#N)c1-c1ccccc1	HCMV UL50-53 inh 24.1
N#Cc1c(N)nc(SCC(=O)c2ccc(Br)cc2)c(C#N)c1-c1cccs1	HCMV UL50-53 inh 40.3
CCOc1ccc(-c2c(C#N)c(N)nc(SCC(=O)OC)c2C#N)cc1	HCMV UL50-53 inh 73.1
CC1CN(CN2C(=O)C(=Nc3ccc4ccccc4c3)c3ccccc32)CC(C)O1 (configuration not stated)	none (no result: GIV Gai3 FP)
CCn1c(=O)c(N2CCC(C(=O)NCCc3c[nH]c4ccc(OC)cc34)CC2)nc2cccnc21	none
N#CC1=C(N2CCOCC2)N=P(c2ccccc2)(c2ccccc2)N=C1c1ccccc1	none (no result: HCMV UL50-53 inh)
Cc1ccsc1C1C=C(c2ccc(Br)cc2)Nc2ncnn21 (configuration not stated)	none (no result: HCMV UL50-53 inh)
Clc1ccc(C2=CC(c3ccc(Br)cc3)n3ncnc3N2)s1 (configuration not stated)	GIV Gai3 FP -22.3 (no result: HCMV UL50-53 inh)
O=C(O)c1cc2c([nH]1)CCCC2	none
O=S(=O)(c1ccc2nsnc2c1)N1CCCCC1c1cccnc1 (configuration not stated)	none
O=S(=O)(c1ccc2c(c1)OCCO2)N1CCCCC1c1cccnc1 (configuration not stated)	GIV Gai3 FP -70.7

Screening data: PubChem BioAssay, ICCB-Longwood Screening Facility, Harvard Medical School
